Tested on: nicotine-induced antinociception
Assay: Blockade of nicotine-induced antinociception, tail-flick test
Assay type: in vivo
Settings: mice
Method: Anitinociception. The tail-flick method of D'Amour and Smith (1941) as modified by Dewey et al. (1970) was used. A control response (2-4 s) was determined for each animal before treatment, and a test latency was determined after drug administration. To minimize tissue damage, a maximum latency of 10 s was imposed. Antinociceptive response was calculated as percent maximum possible effect (% MPE), where % MPE=[((test-control)/(10-control))×100], Groups of 8 to 12 animals were used for each dose and for each treatment. Mice were tested 5 min after nicotine administration for the dose-response evaluation. Antagonism studies were carried out by pretreating the mice s.c. with either saline or various drugs at different times before nicotine. The animals were tested 5 min after administration of nicotine.
Data were analyzed statistically by an analysis of variance followed by the Fisher's P least-significant difference multiple comparison test. The null hypothesis was rejected at the […]. ED50, EC50, and AD50 (antagonist dose 50%) values with 95% CLs were calculated by unweighted least-squares linear regression as described by Tallarida and Murray (1987).

COC(=O)[C@@H]1[C@@H](c2ccc(I)cc2)C[C@@H]2CC[C@H]1N2C
AD50 Tail-Flick (blocking antinociception of nicotine 2.5 mg/kg, systemic administration): 19.1 μmol/hg | Relative potency in blocking nicotine's antinociceptive effect (in words, comparator in the value) (tail-flick): much less potent than cocaine

Reference: patent US6479509B1, “Method of promoting smoking cessation” (priority 2000, dated 2002)
